# In BindingDB's records for doi:10.1021/acschembio.5b01047 (National Institutes of Health, 2016):
# Substitutions are numbered along the chain they refer to.
# Columns and labels:
# Settings in all cases: pH 7.5
# [1] = target: T1, Tyrosyl-DNA phosphodiesterase 2 (Homo sapiens, UniProt O95551); experiment: Recombinant TDP2 Assay
# T1 sequence (O95551 whole entry): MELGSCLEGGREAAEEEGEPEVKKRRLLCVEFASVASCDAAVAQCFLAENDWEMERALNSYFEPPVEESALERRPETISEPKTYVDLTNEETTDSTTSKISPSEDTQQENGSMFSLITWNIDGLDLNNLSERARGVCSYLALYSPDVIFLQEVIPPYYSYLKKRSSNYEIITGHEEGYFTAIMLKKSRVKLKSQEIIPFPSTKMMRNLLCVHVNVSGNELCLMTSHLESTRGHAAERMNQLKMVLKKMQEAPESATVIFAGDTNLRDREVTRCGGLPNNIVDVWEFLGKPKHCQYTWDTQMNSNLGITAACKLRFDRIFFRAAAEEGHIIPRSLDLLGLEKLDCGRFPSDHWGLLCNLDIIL
# Method: (§1) TDP2 reactions were carried out as described previously23 with the following modifications.
# [2] = target: T2, Tyrosyl-DNA phosphodiesterase 2 (Mus musculus, UniProt Q9JJX7); experiment: Recombinant TDP2 Assay
# T2 sequence (Q9JJX7 whole entry): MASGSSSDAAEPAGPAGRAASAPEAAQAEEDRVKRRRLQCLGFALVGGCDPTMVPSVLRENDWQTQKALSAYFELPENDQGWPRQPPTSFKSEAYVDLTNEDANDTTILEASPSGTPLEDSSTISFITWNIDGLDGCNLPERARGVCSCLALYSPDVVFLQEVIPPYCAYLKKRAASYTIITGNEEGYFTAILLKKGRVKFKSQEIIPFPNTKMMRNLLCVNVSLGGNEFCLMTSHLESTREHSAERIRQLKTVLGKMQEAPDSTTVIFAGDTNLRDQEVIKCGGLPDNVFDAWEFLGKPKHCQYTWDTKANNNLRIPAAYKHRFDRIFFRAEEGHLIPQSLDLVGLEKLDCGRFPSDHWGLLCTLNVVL
# Method: as §1
# [3] = target: T3, Tyrosyl-DNA phosphodiesterase 2 [E242G,S244A,Q278R,I281T,K282R,R316G,P318T,Y321CH323L] (Mus musculus, UniProt Q9JJX7, E242G/I281T/K282R/P318T/Q278R/R316G/S244A/Y321CH323L); experiment: Recombinant TDP2 Assay
# T3 sequence (Q9JJX7 whole entry): T2 sequence (Q9JJX7 whole entry) with E242G, S244A, Q278R, I281T, K282R, R316G, P318T, Y321C, H323L
# Method: as §1
# [4] = target: Tyrosyl-DNA phosphodiesterase 2 [E242G,S244A,Q278R,I281T,K282R,R316G,P318T,Y321C] (Mus musculus, UniProt Q9JJX7, E242G/I281T/K282R/P318T/Q278R/R316G/S244A/Y321C); experiment: Recombinant TDP2 Assay
# Method: as §1
# [5] = target: T1, Tyrosyl-DNA phosphodiesterase 2; experiment: TDP2 Assays with Whole Cell Extracts
# Method: Cell pellets were then resuspended in 100 uL of CelLytic M cell lysis reagent (SIGMA-Aldrich C2978). After 15 min on ice, lysates were centrifuged at 12 000g for 10 min, and supernatants were transferred to a new tube. Protein concentrations were determined using a Nanodrop spectrophotometer (Invitrogen), and whole cell extracts were stored at -80 °C. […] Reactions were terminated and samples analyzed.
smiles,measurement,setting,value
O=c1nc2n(-c3ccccc3)c3ccccc3cc-2c(=O)[nH]1,IC50,[1],71 µM
same,IC50,[2],> 111 µM
same,IC50,[3],71 µM
same,IC50,[4],> 111 µM
same,IC50,[5],20 µM
